Measurements reported in article PMC11386428.

Key:
[1] = target: T1, tauPRR, the proline rich region of tau, labelled with Alexa Fluor 488 (human (by the printed UniProt entry)); assay: fluorescence correlation spectroscopy (FCS); ~20 nM fluorescent protein (Alexa 488-labelled tau construct or eGFP) with unlabelled monomer αS up to 150 μM; 20°C; 50 mM Na2HPO4, 50 mM NaCl pH 7.0; single-species diffusion fit, τD normalised to the protein alone
[2] = target: T1, tauPRR, the proline rich region of tau, labelled with Alexa Fluor 488 (human); assay: fluorescence correlation spectroscopy (FCS); labelled tauPRR with 60 nM αS seeds in low (5 mM NaCl), standard (50 mM NaCl) and high salt (500 mM NaCl) buffers; two-component diffusion fit
[3] = target: T1, tauPRR, the proline rich region of tau, labelled with Alexa Fluor 488 (human); assay: fluorescence correlation spectroscopy (FCS); ~20 nM fluorescent protein (Alexa 488-labelled tau construct or eGFP) with unlabelled αS seeds at 20, 60 or 100 nM (monomer units); 20°C; 50 mM Na2HPO4, 50 mM NaCl pH 7.0; two-component diffusion fit, medians of type III curves

Row | Substance | percent increase in τD at 150 μM αS (lower population) [1] | median fB of type III curves, 60 nM αS seeds, 500 mM NaCl [2] | percent of curves fit by a two-component diffusion model, 60 nM αS seeds, 5 mM NaCl [2] | percent of curves fit by a two-component diffusion model, 60 nM αS seeds, 50 mM NaCl [2] | percent of curves of type I (little evidence of binding), 60 nM αS seeds, 50 mM NaCl [2] | fB as the discussion prints it, at 60 nM αS seeds [3] | fB as the discussion prints it, at 100 nM αS seeds [3] | median fB (fraction of tau with τD2) at 20 nM αS seeds [3] | median fB (fraction of tau with τD2) at 60 nM αS seeds [3] | median fB (fraction of tau with τD2) at 100 nM αS seeds [3] | median type III τ (D2app) at 20 nM αS seeds [3] | median type III τ (D2app) at 100 nM αS seeds [3]
1 | N-terminally acetylated full-length α-synuclein, monomer (from UniProt P37840 1-140) (natural protein) | 7% |  |  |  |  |  |  |  |  |  |  | 
2 | full-length αS seeds (sonicated fibrils of N-terminally acetylated α-synuclein) (from UniProt P37840 1-140) (complex) |  | 0.02 | 99% | 93% | 2% | 100% | 100% | 0.062 | 0.29 | 0.32 | 3.3 ms | 4 ms
